Results from US9789089B2 (Gilead Sciences, Inc., priority 2013, dated 2017).

Test: Test B: Cytotoxicity assay
Assay type: cell-based
Settings: human, uninfected MT-4 cells, same protocol as Test A, CellTiter-Glo
Protocol: For the antiviral assay, 40 μL of 1× test concentration of 3-fold serially diluted compound in culture medium with 10% FBS was added to each well of a 384-well plate (10 concentrations) in quadruplicate. MT-4 cells were next mixed with HIV-IIIb at an m.o.i of 0.003 for 1 hour, after which time 35 μL of virus/cell mixture (2000 cells) was immediately added to each well containing 40 μL of diluted compound. The plates were then incubated at 37° C. for 5 days. After 5 days of incubation, 25 μl of 2× concentrated CellTiter-Glo™ Reagent (catalog #G7571, Promega Biosciences, Inc., Madison, Wis.) was added to each well containing MT-4 cells. Cell lysis was carried out by incubating at room temperature for 10 min and then chemiluminescence was read.
Test B:Cytotoxicity assay
Compound cytotoxicity and the corresponding CC50 values was determined using the same protocol as described in the antiviral assay (Test A) except that uninfected cells were used.
Compound COc1ccc(-n2ccnc2[C@H](Cc2cc(F)cc(F)c2)NC(=O)Cc2c[nH]c3ccc(O)cc23)cc1 [Compound 7, (S)—N-(2-(3,5-difluorophenyl)-1-(1-(4-methoxyphenyl)-1H-imidazol-2-yl)ethyl)-2-(5-hydroxy-1H-indol-3-yl)acetamide] has a CC50 at 5 days of over 47.1 µM. COc1ccc(-n2ccnc2[C@@H](Cc2cc(F)cc(F)c2)NC(=O)Cc2c[nH]c3ccc(O)cc23)cc1 [Compound 8, (R)—N-(2-(3,5-difluorophenyl)-1-(1-(4-methoxyphenyl)-1H-imidazol-2-yl)ethyl)-2-(5-hydroxy-1H-indol-3-yl)acetamide] gave a CC50 at 5 days of 44.3 µM. Compound Cc1ccccc1-c1scnc1C(Cc1cc(F)cc(F)c1)NC(=O)Cc1c[nH]c2ccc(O)cc12 (stereo not drawn) [Compound 13E, N-(2-(3,5-difluorophenyl)-1-(5-(o-tolyl)thiazol-4-yl)ethyl)-2-(5-hydroxy-1H-indol-3-yl)acetamide] has a CC50 at 5 days of 25.4 µM. For O=C(Cc1c[nH]c2ccc(O)cc12)N[C@@H](Cc1cc(F)cc(F)c1)c1nocc1-c1ccc(Cl)cc1 [Compound 26, (S)—N-(1-(4-(4-chlorophenyl)isoxazol-3-yl)-2-(3,5-difluorophenyl)ethyl)-2-(5-hydroxy-1H-indol-3-yl)acetamide], the CC50 at 5 days was 19.5 µM. With O=C(Cc1c[nH]c2ccc(O)cc12)N[C@H](Cc1cc(F)cc(F)c1)c1nocc1-c1ccc(Cl)cc1 [Compound 28B, (R)—N-(1-(4-(4-chlorophenyl)isoxazol-3-yl)-2-(3,5-difluorophenyl)ethyl)-2-(5-hydroxy-1H-indol-3-yl)acetamide] the CC50 at 5 days was 11.6 µM. Work on Cn1cnc(C(Cc2cc(F)cc(F)c2)NC(=O)Cc2c[nH]c3ccc(O)cc23)c1-c1ccc(Cl)cc1 (stereo not drawn) [Compound 31, N-(1-(5-(4-chlorophenyl)-1-methyl-1H-imidazol-4-yl)-2-(3,5-difluorophenyl)ethyl)-2-(5-hydroxy-1H-indol-3-yl)acetamide] yielded a CC50 at 5 days of 25.4 µM.
